Source: US20220265579A1, “COMPOSITION FOR PREVENTING OR TREATING CARDIO-CEREBROVASCULAR DISEASE COMPRISING AUTOPHAGY ACTIVATOR AS ACTIVE INGREDIENT” (VASTHERA CO. LTD., priority 2019, published 2022)

Protein sequences, listed by entry. Tags and fused reporters are not part of them.
UniProt P21796, whole entry, species assumed: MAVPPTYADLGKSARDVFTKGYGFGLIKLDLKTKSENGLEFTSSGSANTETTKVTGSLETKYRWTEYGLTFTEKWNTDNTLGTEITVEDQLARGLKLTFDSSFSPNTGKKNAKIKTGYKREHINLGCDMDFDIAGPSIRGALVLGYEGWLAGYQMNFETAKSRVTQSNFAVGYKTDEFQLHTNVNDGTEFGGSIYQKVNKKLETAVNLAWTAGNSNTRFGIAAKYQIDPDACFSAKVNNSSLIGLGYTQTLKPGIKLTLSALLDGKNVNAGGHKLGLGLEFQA

What was measured:
autophagy = settings: nanomolar concentration level
[1] = tested on: MEFs (mouse embryonic fibroblasts); settings: FIG. 3H
AMPK = assay: Immunoblotting of AMPK phosphorylation (p-AMPK/AMPK); type: cell-based; settings: compared to rapamycin, FIG. 2A/2B
autophagic vacuoles = assay: MDC fluorescence staining of autophagic vacuoles; type: cell-based; settings: FIG. 1C
VDAC1 = VDAC1 (Homo sapiens, UniProt P21796); settings: DARTS, 20 minutes or more, FIG. 3B
[2] = tested on: smooth muscle cells (SMC); settings: 0 μM to 20 μM, 72 hours, MTT, FIG. 4A

CN[C@H]1CC[C@@H](c2ccc(Cl)c(Cl)c2)c2ccccc21 [sertraline]
autophagy induction at nanomolar concentration (autophagy): does not induce autophagy | cell proliferation of wild-type MEFs [1]: continuously inhibited | cell proliferation maintained in MEFs without VDAC1 ([1]; about 10 μM, 72nd hour): ≥ 50% | p-AMPK/AMPK ratio / AMPK phosphorylation (AMPK): relatively high p-AMPK/AMPK; also recorded: inducing AMPK activity | quantity of LC3 expressed (MDC staining) relative to indatraline (autophagic vacuoles): about 1.5 times | stability of VDAC1 to pronase at nanomolecule concentration (VDAC1): but not VDACI | proliferation of smooth muscle cells [2]: the proliferation of the smooth muscle cells is more greatly inhibited

Entries after “also recorded” stand apart in the source; their conditions may differ.
